The nature of this data set: Haemolysis assay. The data set is classed as cell-based. Particulars: sensitised sheep erythrocytes, 1 hour at 37° C., printed μM or uM, read-out: LC50 (concentration of compound required to give 50% lysis). The procedure: Lysis of sensitised sheep erythrocytes was measured using a standard haemolytic assay using a v-bottom microtitre plate format as follows:
50 microlitres of a range of concentrations of compound diluted in Hepes buffer were mixed with 100 microlitres of sensitised sheep erythrocytes and then incubated for 1 hour at 37° C. Samples were spun at 1600 rpm at ambient temperature for 3 minutes before transferring 150 microlitres of supernatant to a flat bottom microtitre plate and determining the absorption at 405 or 410 nm. Maximum lysis (Amax) was determined by incubating serum with erythrbcytes in the presence of human serum diluted 1:400 (final concentration in assay mixture) in 0.1 M Hepes/0.15 M NaCl/0.1% gelatin pH 7.4. Background lysis (Ao) was determined by incubating erythrocytes in the absence of any serum or compound, using PBS as a control.

In US7078380B2, “Antibacterial agents comprising conjugates of glycopeptides and peptidic membrane associating elements” (priority 2000, dated 2006) one finds HC50 data, which are given here for one compound.

`CC[C@H](C)[C@H](NC(=O)CN)C(=O)NCC(=O)N[C@@H](C)C(=O)N[C@H](C(=O)N[C@@H](CC(C)C)C(=O)N[C@@H](CCCCN)C(=O)N[C@H](C(=O)N[C@@H](CC(C)C)C(=O)N[C@H](C(=O)N[C@H](C(=O)NCC(=O)N[C@@H](CC(C)C)C(=O)N1CCC[C@H]1C(=O)N[C@@H](C)C(=O)N[C@@H](CC(C)C)C(=O)N[C@H](C(=O)N[C@@H](CO)C(=O)N[C@@H](Cc1c[nH]c2ccccc12)C(=O)N[C@H](C(=O)N[C@@H](CCCCN)C(=O)N[C@@H](CCCNC(=N)N)C(=O)N[C@@H](CCCCN)C(=O)N[C@@H](CCCNC(=N)N)C(=O)N[C@@H](CCC(N)=O)C(=O)N[C@@H](CCC(N)=O)C(=O)N[C@@H](CSSc1ccccn1)C(N)=O)[C@@H](C)CC)[C@@H](C)CC)[C@@H](C)O)[C@@H](C)O)C(C)C)C(C)C` [APT2235]: the HC50 at 1 hour worked out at 1.2 µM.
